Measured values reported in PubChem BioAssay (NCI).
Some tests of the compounds listed are not included; inactive here does not mean inactive elsewhere.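 1) Cells in 96-well plates. 2) Compound, 48 h, 5 concentrations. 3) Linear interpolation between surrounding doses. 4) Unreached endpoint = highest concentration. GI50 is the concentration that inhibits growth by half. TGI is the concentration that stops growth completely.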

Columns and labels:
Assay in all cases: NCI-60 cell line screen, 48 h
NCI-H23 lung = tested on: NCI-H23 lung
NCI-H322M lung = tested on: NCI-H322M lung
NCI-H460 lung = tested on: NCI-H460 lung
NCI-H522 lung = tested on: NCI-H522 lung
NCI/ADR-RES ovarian = tested on: NCI/ADR-RES ovarian
OVCAR-3 ovarian = tested on: OVCAR-3 ovarian
OVCAR-4 ovarian = tested on: OVCAR-4 ovarian
OVCAR-5 ovarian = tested on: OVCAR-5 ovarian
OVCAR-8 ovarian = tested on: OVCAR-8 ovarian
PC-3 prostate = tested on: PC-3 prostate
RPMI-8226 leukemia = tested on: RPMI-8226 leukemia
RXF 393 renal = tested on: RXF 393 renal
SF-268 CNS = tested on: SF-268 CNS
SF-295 CNS = tested on: SF-295 CNS
SF-539 CNS = tested on: SF-539 CNS
SK-MEL-2 melanoma = tested on: SK-MEL-2 melanoma
SK-MEL-28 melanoma = tested on: SK-MEL-28 melanoma
SK-MEL-5 melanoma = tested on: SK-MEL-5 melanoma
SK-OV-3 ovarian = tested on: SK-OV-3 ovarian
SN12C renal = tested on: SN12C renal
SNB-19 CNS = tested on: SNB-19 CNS
SR leukemia = tested on: SR leukemia
SW-620 colon = tested on: SW-620 colon
T-47D breast = tested on: T-47D breast
TK-10 renal = tested on: TK-10 renal
U251 CNS = tested on: U251 CNS
UACC-257 melanoma = tested on: UACC-257 melanoma
UACC-62 melanoma = tested on: UACC-62 melanoma

## C/C=C\C(O)(C(=O)OC1CN2CCC1CC2)C1CCCCC1 (stereo unspecified)
NCI-H23 lung
  GI50: > 100 µM
  TGI: > 100 µM
NCI-H322M lung
  GI50: > 100 µM
  TGI: > 100 µM
NCI-H460 lung
  GI50: > 100 µM
  TGI: > 100 µM
NCI-H522 lung
  GI50: > 100 µM
  TGI: > 100 µM
NCI/ADR-RES ovarian
  GI50: > 100 µM
  TGI: > 100 µM
OVCAR-3 ovarian
  GI50: > 100 µM
  TGI: > 100 µM
OVCAR-4 ovarian
  GI50: > 100 µM
  TGI: > 100 µM
OVCAR-5 ovarian
  GI50: > 100 µM
  TGI: > 100 µM
OVCAR-8 ovarian
  GI50: > 100 µM
  TGI: > 100 µM
PC-3 prostate
  GI50: > 100 µM
  TGI: > 100 µM
RPMI-8226 leukemia
  GI50: > 100 µM
  TGI: > 100 µM
RXF 393 renal
  GI50: > 100 µM
  TGI: > 100 µM
SF-268 CNS
  GI50: > 100 µM
  TGI: > 100 µM
SF-295 CNS
  GI50: > 100 µM
  TGI: > 100 µM
SF-539 CNS
  GI50: > 100 µM
  TGI: > 100 µM
SK-MEL-2 melanoma
  GI50: > 100 µM
  TGI: > 100 µM
SK-MEL-28 melanoma
  GI50: > 100 µM
  TGI: > 100 µM
SK-MEL-5 melanoma
  GI50: > 100 µM
  TGI: > 100 µM
SK-OV-3 ovarian
  GI50: > 100 µM
  TGI: > 100 µM
SN12C renal
  GI50: > 100 µM
  TGI: > 100 µM
SNB-19 CNS
  GI50: > 100 µM
  TGI: > 100 µM
SR leukemia
  GI50: > 100 µM
  TGI: > 100 µM
SW-620 colon
  GI50: > 100 µM
  TGI: > 100 µM
T-47D breast
  GI50: > 100 µM
  TGI: > 100 µM
TK-10 renal
  GI50: > 100 µM
  TGI: > 100 µM
U251 CNS
  GI50: > 100 µM
  TGI: > 100 µM
UACC-257 melanoma
  GI50: > 100 µM
  TGI: > 100 µM
UACC-62 melanoma
  GI50: > 100 µM
  TGI: > 100 µM
